One substance from KR20140009174A can be followed below.

This test has as its target CXCR4/Rluc + CXCR4/YFP (HEK293 세포의 CXCR4 동종이량체 BRET 파트너) (human; Renilla reniformis) (UniProt P61072). Kind of test: cell-based or functional assay.

With “SDF-1 (간질세포-유래 인자-1, CXCL12) (from UniProt P48061 22-89) (ligand)”, the BRET 신호 증가 (SDF1 100 nM) worked out at 10% and the BRET 신호 증가 (SDF1 300 nM) amounted to 20%.
